Drawing on patent EP3925956B1, “1H-INDAZOLE-3-CARBOXAMIDE DERIVATIVES AND RELATED COMPOUNDS AS FACTOR D INHIBITORS FOR TREATING DISEASES CHARACTERIZED BY ABERRANT COMPLEMENT SYSTEM ACTIVITY, SUCH AS E.G. IMMUNOLOGICAL DISORDERS” (BioCryst Pharmaceuticals, Inc., priority 2016, dated 2017), this text covers IC50 for one compound.

Protein sequences, listed by entry. Tags and fused reporters are not part of them. Residues count along the entry.
UniProt P00746, 26-253: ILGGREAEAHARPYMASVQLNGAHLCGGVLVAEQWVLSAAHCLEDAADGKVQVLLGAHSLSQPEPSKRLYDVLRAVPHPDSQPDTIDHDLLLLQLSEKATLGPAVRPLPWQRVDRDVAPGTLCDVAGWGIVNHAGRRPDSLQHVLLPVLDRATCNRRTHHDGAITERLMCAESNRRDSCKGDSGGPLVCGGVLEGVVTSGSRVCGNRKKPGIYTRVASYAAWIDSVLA

A word on the IC50: it is the concentration needed to halve the response being measured.

This assay has as its target Factor D (Homo sapiens, UniProt P00746). Briefly: Factor D esterolytic assay.

Consider `CC(C)N(CC(=O)NCc1cccc(Cl)c1F)C(=O)Cn1nc(C(N)=O)c2cc(C(=O)NCC3CC3)ccc21` [174a], for which the IC50 was less than 1000 nM.
